# Yeast mating assay B: variants of the scFv Ab-14

Target: peptide PDVDLGDISGINAS, taken from heptad repeat 2 (HR2) of SARS-CoV-2 spike.

The variants keep the light chain, the linker and the frameworks of Ab-14 (scFv order VH, three GGGGS repeats, VL).
VH: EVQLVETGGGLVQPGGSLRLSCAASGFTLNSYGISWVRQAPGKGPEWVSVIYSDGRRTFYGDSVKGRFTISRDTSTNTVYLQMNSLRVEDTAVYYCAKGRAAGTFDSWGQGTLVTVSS
VL: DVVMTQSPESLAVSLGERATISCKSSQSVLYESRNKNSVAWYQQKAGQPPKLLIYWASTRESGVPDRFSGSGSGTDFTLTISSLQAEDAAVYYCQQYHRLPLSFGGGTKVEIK

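The parent was found by panning a naive human phage display library on the peptide. The variants were designed computationally from a first round of random CDR variants and then made and measured. Several design methods are mixed in this list. The assay is AlphaSeq: two haploid yeast populations carry antibody and antigen on their surface. After mating in shaken culture at 30 °C for 16 h, diploids were selected and their barcode pairs sequenced. Each replicate has its own calibration line, from reference interactions of the BCL2 family. Mating was done six times.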

Each variant is given by its three heavy chain CDRs, as the data file delimits them; those of the parent are GFTLNSYGIS, VIYSDGRRTFYGDSVK, GRAAGTFDS. Variants here have more than six changes. Values are log10 of the apparent Kd in nM; lower means stronger binding. Where no diploid with the target was found in that replicate, the entry reads "ND": below detection, most likely a poor binder, though not proof of it.

For GFDLNEYGIS | VIYADGRRTFYADSVK | GNEAGTFDI, the assay gave 0.36, 0.22, 0.88, 0.21, 0.57, 0.77 (controls 0 of 18). With GFDIEEYGIS | VIYADGQRTSYSNDFK | GQNGMIGNY the result was ND, ND, ND, ND, ND, ND (controls 0 of 18). With GFDLNEYGIS | VIYADGRRTFYSDSVK | GAVAGTFDE the result was -0.52, -0.34, -0.41, -0.60, -0.82, -0.37 (controls 0 of 18). Variant GFNINEYGIS | VIYADGLRVAYIDSVK | GNASIFGVD showed ND, ND, ND, ND, ND, ND (controls 1 of 18). For GFDLNEYGIS | VIYADGMRTVYADSVK | GETAGTFDQ, the assay gave -0.20, ND, 0.70, 2.19, 0.15, 1.13 (controls 0 of 18). For GFDLNEYGIS | VIYADGRRTFYADSVK | GNQAGTFIV, the assay gave 1.22, 0.96, 0.88, 1.06, 1.41, 1.27 (controls 1 of 18). For GFDLNEYGIS | VIYADGLRTFYTDSVK | GEEAGTFDV, the assay gave -0.75, -0.20, -0.48, -0.30, -0.05, 0.21 (controls 0 of 18).

Variant GFDLESYGIS | VIYADGSRTAYADSVK | GNVAGTFDT showed 0.03, -0.12, -0.40, 0.01, -0.05, 0.10 (controls 1 of 18). For GFDLGEYGIS | VIYADGVRRSYADKVK | GKNGAISSV, the assay gave ND, ND, ND, ND, ND, ND (controls 0 of 18). For GFDIEEYGIS | VIYADGRRKAYADSVK | GIDVYGKVV, the assay gave ND, ND, ND, ND, ND, ND (controls 0 of 18). Variant GFNLDEYGIS | VIYADGRRTFYSDSVK | GEAAGTFDI showed -0.15, -0.21, -0.27, -0.24, -0.21, -0.24 (controls 1 of 18). With GMDLEEYGIS | VIYADGVRVRYSNDVK | GQVDGILVV the result was ND, ND, ND, ND, ND, ND (controls 0 of 18). For GFSIDEYGIS | VIYADGTRTAYIDNVK | GLIGMFCDI, the assay gave ND, ND, ND, ND, ND, ND (controls 0 of 18). For GFDLEEYGIS | VIYADGRRKQYTDAVK | GKFLVMMDM, the assay gave ND, ND, ND, ND, ND, ND (controls 0 of 18).

Variant GFDLNEYGIS | VIYADGKRTYYADSVK | GEVAGTFDV gave -0.65, -0.45, -0.58, -1.04, -0.23, -0.68 (controls 0 of 18). With GFGLDEYGIS | VIYADGMRAQYATSVK | GYEAGTFST the result was ND, ND, ND, ND, ND, ND (controls 0 of 18). Variant GFDLNEYGIS | VIYADGRRTFYVDSVK | GVNAGTFDF gave 0.45, 0.26, 0.58, 0.17, 0.21, 0.63 (controls 0 of 18). Variant GFNLDEYGIS | VIYADGKRTAYADSVK | GEVAGTFDV showed 0.46, 0.54, -0.34, -0.17, 0.05, 0.52 (controls 0 of 18). With GFDLQEMGIS | VIYADGARKSYTNSVK | GVFGGQMDV the result was ND, ND, ND, ND, ND, ND (controls 2 of 18). Variant GFDLDEYGIS | VIYADGMRTFYTDSVK | GENAGTFDA gave -0.16, -0.46, -0.48, -0.57, -0.60, -0.42 (controls 0 of 18). Variant GFNLNEYGIS | VIYADGQRTFYADSVK | GQIAGTFIV gave 1.09, 0.34, 0.99, 1.27, 0.48, 0.96 (controls 0 of 18).

For GFDLNEYGIS | VIYADGVRTAYADSVK | GANAGTFDL, the assay gave -0.61, -0.71, -0.58, -0.67, -0.69, -0.31 (controls 0 of 18). With GFDLNEYGIS | VIYADGRRTAYKDSVK | GQVAGTFDS the result was -0.62, -0.05, -0.93, -0.75, -0.24, -0.69 (controls 0 of 18). Variant GKDIEEYGIS | VIYADGMRQAYADSVK | GQVAGSGKF showed ND, ND, ND, ND, 1.90, ND (controls 0 of 18). Variant GFDLDEYGIS | VIYADGMRTAYADDVK | GEVAGTFDI gave 0.19, 0.58, 0.67, 0.40, 0.33, 0.72 (controls 0 of 18). Variant GFDLNEYGIS | VIYADGMRTAYADDVK | GNVAGTFDF showed -0.23, -0.26, -0.09, -0.68, -0.71, -0.59 (controls 2 of 18). For GFDLMEYGIS | VIYADGMRQAYANKFK | GGITDSGLI, the assay gave ND, ND, ND, ND, ND, ND (controls 0 of 18). Variant GFDLNEYGIS | VIYADGVRTFYADSVK | GQNAGTFDV showed 0.01, 0.10, 0.08, -0.36, -0.15, 0.19 (controls 1 of 18).

Variant GFDLNEYGIS | VIYADGMRTHYTDSVK | GNTAGTFDS gave 0.92, 0.93, 1.18, 0.37, 1.54, ND (controls 0 of 18). With GFDLNEYGVS | VIYADGIRRAYAANFK | GVTAGGLDI the result was ND, ND, ND, ND, ND, ND (controls 1 of 18). Variant GQSLDDYGIS | VIYADGQRKYAVDEVK | GEVAGTFDI showed 0.54, 1.21, 0.18, -0.21, 0.23, 0.58 (controls 0 of 18). Variant GFNLDEYGIS | VIYADGRRKFYADSVK | GNTAGTFDV showed -0.74, -0.89, -0.73, -1.26, -0.86, -0.65 (controls 0 of 18). For GFDLNEYGIS | VIYADGKRTAYSDSVK | GEAGGTFDV, the assay gave -0.10, -0.11, -0.15, -0.20, -0.05, 0.01 (controls 0 of 18).

Picked from the list: the 2 lowest averages where every replicate gave a value.

CDR-H1	CDR-H2	CDR-H3	log10 Kd, replicates	empty controls
GFNLDEYGIS	VIYADGRRKFYADSVK	GNTAGTFDV	-0.74, -0.89, -0.73, -1.26, -0.86, -0.65	0/18
GFDLNEYGIS	VIYADGKRTYYADSVK	GEVAGTFDV	-0.65, -0.45, -0.58, -1.04, -0.23, -0.68	0/18

Three control strains display no target. For all heavy chain designs, 1% of the pairings with them gave a signal, with a median of 2.08 and one signal in twenty below 0.84, so weak values seen in few replicates may be background. Also given: how often the same scFv was detected with the empty control strains. Of ten entries with the parent sequence, four were seen in most replicates (averages 0.34 to 2.37), three in one and three in none, so single entries are noisy. The authors averaged sequences with at least three values out of six and counted those with two or fewer as poor binders. The range of this assay differs from that of the first round, and the authors advise against merging the two.

The measurements come from Li et al. 2023 (doi:10.1038/s41467-023-39022-2) through the FLAb antibody collection.